This experiment has as its target T1, 15-HLO (Homo sapiens, UniProt P16050).
T1 sequence (P16050 1-662): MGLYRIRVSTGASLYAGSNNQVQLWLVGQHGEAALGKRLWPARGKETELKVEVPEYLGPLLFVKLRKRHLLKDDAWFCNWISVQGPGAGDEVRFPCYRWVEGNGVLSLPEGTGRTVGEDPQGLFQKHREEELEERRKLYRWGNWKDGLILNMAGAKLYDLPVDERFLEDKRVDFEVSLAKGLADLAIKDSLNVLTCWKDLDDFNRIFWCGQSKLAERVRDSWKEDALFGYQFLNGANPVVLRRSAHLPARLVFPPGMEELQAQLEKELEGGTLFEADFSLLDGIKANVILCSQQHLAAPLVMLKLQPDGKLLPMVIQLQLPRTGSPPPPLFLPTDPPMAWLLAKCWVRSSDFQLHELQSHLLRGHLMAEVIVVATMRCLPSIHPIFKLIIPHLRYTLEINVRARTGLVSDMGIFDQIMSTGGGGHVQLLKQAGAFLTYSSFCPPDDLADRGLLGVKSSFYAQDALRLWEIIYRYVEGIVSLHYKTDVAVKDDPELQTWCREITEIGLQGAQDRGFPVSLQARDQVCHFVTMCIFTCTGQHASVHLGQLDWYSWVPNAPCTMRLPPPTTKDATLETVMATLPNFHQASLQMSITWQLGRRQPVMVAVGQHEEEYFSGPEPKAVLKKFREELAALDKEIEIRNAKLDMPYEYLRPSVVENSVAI

For the compound `CC1=C(CC/C(C)=C/Cc2cc(C(=O)O)ccc2O)[C@]2(C)CCCC(C)(C)[C@H]2CC1` [(−)-subersic acid (1), 4-hydroxy-3-[3-methyl-5-(2,5,5,8a-tetramethyl-3,4,4a,5,6,7,8,8a-octahydro-naphthalen-1-yl)-pent-2-enyl]-benzoic acid], the “reduction of active site Fe(III) of 15-HLO seen by fluorescence spectroscopy” value is reported as “do not cause a change in the fluorescence spectroscopy of 15-HLO”.

Source of the values: patent publication US6750247B2, “Sponge-derived terpenoids and methods of use” (Galileo Laboratories, Inc., priority 2001, dated 2004).
